Experimental data: PubChem BioAssay AID743238 (Broad Institute, 2013)
Only a part is listed here, and it is no random draw. Some salts and complexes are drawn in separate pieces, as the source files them; their charges need not balance. Active and inactive are the calls of the source.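 How the source made its calls: active means mean normalized replicate activation at least 10% and every replicate at or above 10%; inconclusive means only one of the two criteria met; inactive means mean below 10% and not all replicates reach 10%.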

Experiment: Xi reactivation inducers in mouse fibroblasts – imaging, XiGFP fibroblasts, GFP high-content imaging, set 2, primary screen (AID 743238);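 further: 0% = median of on-plate neutral control wells and 100% = ellipticine 6 µM median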
Settings: % GFP-positive cells imaging, 3 d, at 7.58 µM, stronger effect = higher value, cells co-treated with 5-aza-dC sensitizer, scaled so ellipticine positive control = 100%
Outline: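 System: 68-5-11 XiGFP fibroblast line; Timing: 3 days compound exposure; Compound dosing: one concentration, pinned; Benchmarks: positive control ellipticine, 6 µM final; Buffer or medium: DMEM containing 5-aza-dC.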

SMILES | activation
CCOC(=O)c1ccc(NP(C)(=O)Oc2ccc(Cl)cc2)cc1 (stereo not given) | inactive: -0.0505%
Nc1ccc2c(ccc3cccnc32)n1.O=[N+]([O-])c1cc([N+](=O)[O-])c(O)c([N+](=O)[O-])c1 | inactive: 0.0065%
CCc1ccc(OP(C)(=O)Nc2cccnc2)cc1 (stereo not given) | inactive: 0.115%
O=C(OCCCN1CCCC1)C(O)(c1ccccc1)C1CCCCC1 (stereo not given) | inactive: -0.0795%
COc1ccc(OP(C)(=O)Nc2ccc(Br)cc2)cc1 (stereo not given) | inactive: 0%
CN(C)C(=O)c1c([N+](=O)[O-])cc([N+](=O)[O-])cc1[N+](=O)[O-] | inactive: 1.01%
COc1ccccc1OP(C)(=O)Nc1ccccc1Br (stereo not given) | inactive: 0.0955%
COc1ccccc1OP(C)(=O)Nc1ccc(Br)cc1 (stereo not given) | inactive: -0.134%
O=[N+]([O-])c1cc([N+](=O)[O-])c(Nc2ccccn2)c([N+](=O)[O-])c1 | inactive: 0.548%
COc1ccc(OP(C)(=O)Nc2ccccc2Br)cc1 (stereo not given) | inactive: -0.148%
O=C1C(O)=C([N+](=O)[O-])C(=O)C(O)=C1[N+](=O)[O-] | inactive: 0.129%
Cc1cc(C)cc(OP(C)(=O)Nc2cccc(C(F)(F)F)c2)c1 (stereo not given) | inactive: -0.0085%
CP(=O)(OCCOc1ccccc1)OCCOc1ccccc1 | inactive: 0.151%
CP(=O)(Nc1ccc(Cl)cc1Cl)Oc1ccccc1 (stereo not given) | inactive: -0.0075%
CCCCCCCCCCCCCCCC1C[N+](C)(C)CCOP(C)(=O)O1 (stereo not given) | inactive: -0.0835%
COc1ccc(OP(C)(=O)Nc2ccc(SC(F)(F)F)cc2)cc1 (stereo not given) | inactive: 0%
CCOC(=O)c1ccc(NP(C)(=O)Oc2ccc(F)cc2)cc1 (stereo not given) | inactive: 0.0325%
CCN(CC)CCCNc1ccccc1[N+](=O)[O-].O=[N+]([O-])c1cc([N+](=O)[O-])c(O)c([N+](=O)[O-])c1 | inactive: -0.215%
O=[N+]([O-])c1cc([N+](=O)[O-])c(OC2CCCCC2O)c([N+](=O)[O-])c1 (stereo not given) | inactive: -0.0385%
CCCCCOc1ccc(NP(C)(=O)Oc2ccc(Cl)cc2Cl)cc1 (stereo not given) | inactive: 0.0935%
Cc1c([N+](=O)[O-])cc([N+](=O)[O-])c(Br)c1[N+](=O)[O-] | inactive: 0.0895%
CC(C)c1ccc(OP(C)(=O)Nc2ccc(SC(F)(F)F)cc2)cc1 (stereo not given) | inactive: -0.173%

SMILES | activation
O=[N+]([O-])c1cc([N+](=O)[O-])c(Nc2ccc(Cl)cc2)c([N+](=O)[O-])c1 | inactive: 0.324%
COc1ccc2c(c1O)-c1c(O)c(OC)cc3c1[C@H](C2)[N+](C)(C)CC3.O=[N+]([O-])c1cc([N+](=O)[O-])c([O-])c([N+](=O)[O-])c1[O-] | inactive: 0.555%
O=C(OCCN1CCN(CCOCc2ccccc2)CC1)C(O)(c1ccccc1)c1ccccc1 | inactive: -0.093%
O=C(OC1CN2CCC1CC2)c1ccc([N+](=O)[O-])cc1 (stereo not given) | inactive: 0.071%
CP(=O)(Nc1ccc(SC(F)(F)F)cc1)Oc1ccc(F)cc1 (stereo not given) | inactive: 0.369%
O=[N+]([O-])c1cc([N+](=O)[O-])c(C(F)(F)F)c([N+](=O)[O-])c1O | inactive: 0.021%
COc1ccc(NP(C)(=O)Oc2ccccc2OC)cc1 (stereo not given) | inactive: 0.0665%
Cc1c(C(c2ccc3c(c2)OCO3)c2c(C)n(C)n(-c3ccccc3)c2=O)c(=O)n(-c2ccccc2)n1C.O=[N+]([O-])c1cc([N+](=O)[O-])c(O)c([N+](=O)[O-])c1 | inactive: -0.0685%
Cc1cc(-c2cccc3ccccc23)c(C)cn1.O=[N+]([O-])c1cc([N+](=O)[O-])c(O)c([N+](=O)[O-])c1 | inactive: 0.472%
O=[N+]([O-])c1cc([N+](=O)[O-])c(NCC2CCS(=O)(=O)C2)c([N+](=O)[O-])c1 (stereo not given) | inactive: -0.15%
O=[N+]([O-])c1ccc(OP2(=O)COCCO2)cc1 (stereo not given) | inactive: -0.019%
O=[N+]([O-])c1cc([N+](=O)[O-])c(Nc2nnnn2CCO)c([N+](=O)[O-])c1 | inactive: 0.0105%
CCOC(=O)C(CC)C1=NC(C)(C)Cc2ccccc21.O=[N+]([O-])c1cc([N+](=O)[O-])c(O)c([N+](=O)[O-])c1 (stereo not given) | inactive: -0.085%
CP(=O)(Nc1ccc(SC(F)(F)F)cc1)Oc1ccccc1 (stereo not given) | inactive: 0.146%
CCCOc1ccc(NP(C)(=O)Oc2ccc(Cl)cc2)cc1 (stereo not given) | inactive: 0.254%
COc1ccc(-c2ccccn2)cc1.O=[N+]([O-])c1cc([N+](=O)[O-])c(O)c([N+](=O)[O-])c1 | inactive: -0.082%
CN1CCCCC1COC(=O)C1(O)c2ccccc2CCc2ccccc21 (stereo not given) | inactive: -0.103%
CN(Cc1cccnc1)C(=O)COc1ccc(Cl)c(Cl)c1.O=[N+]([O-])c1cc([N+](=O)[O-])c(O)c([N+](=O)[O-])c1 | inactive: 0.002%
O=[N+]([O-])c1cc([N+](=O)[O-])c(-n2nnc3ccccc32)c([N+](=O)[O-])c1 | inactive: 0%
O=[N+]([O-])c1cc([N+](=O)[O-])c(-c2cnn(-c3ccccc3)c2)c([N+](=O)[O-])c1 | inactive: -0.0435%
CCOC(=O)c1ccc(NP(C)(=O)Oc2cc(C)cc(C)c2)cc1 (stereo not given) | inactive: 0.0575%
COc1ccccc1OP(C)(=O)Nc1cccc(Br)c1 (stereo not given) | inactive: -0.16%

SMILES | activation
CP(=O)(Nc1cccc(Br)c1)Oc1ccccc1 (stereo not given) | inactive: 0.391%
O=C(O)c1cccc(Nc2c([N+](=O)[O-])cc([N+](=O)[O-])cc2[N+](=O)[O-])c1 | inactive: 3.82%
CC1=NCCc2c1[nH]c1ccccc21.O=[N+]([O-])c1cc([N+](=O)[O-])c(O)c([N+](=O)[O-])c1 | inactive: 0.035%
CC(C)(C)c1ccc(OP(C)(=O)Nc2ccc(SC(F)(F)F)cc2)cc1 (stereo not given) | inactive: -0.0895%
Cc1cccc(C)c1OP(C)(N)=O (stereo not given) | inactive: 0.174%
O=[N+]([O-])c1ccc2c(c1)C=Nc1ccccc1O2 | inactive: 0.295%
O=[N+]([O-])c1cc([N+](=O)[O-])c(Nc2cccnc2)c([N+](=O)[O-])c1 | inactive: 0.0715%
COc1ccccc1OP(C)(=O)Nc1cc(Cl)ccc1C (stereo not given) | inactive: 0.017%
Cc1cc(C)cc(OP(C)(N)=O)c1 (stereo not given) | inactive: 0.005%
CCOC(=O)c1ccc(NP(C)(=O)Oc2ccccc2)cc1 (stereo not given) | inactive: 0.13%
CCN(CC)CCCOC(=O)C(O)(c1ccccc1)c1ccccc1 | inactive: 0.686%
COc1ccccc1-c1ccccn1.O=[N+]([O-])c1cc([N+](=O)[O-])c(O)c([N+](=O)[O-])c1 | inactive: -0.0575%
CCc1ccc(OP(C)(=O)N2CCN(c3ccc([N+](=O)[O-])cc3)CC2)cc1 (stereo not given) | inactive: -0.0325%
Cc1cc(C)cc(OP(C)(=O)Nc2ccc(SC(F)(F)F)cc2)c1 (stereo not given) | inactive: 0.004%
CP(=O)(Nc1ccc(SC(F)(F)F)cc1)Oc1ccc(Cl)cc1 (stereo not given) | inactive: -0.193%
Cc1cccc(C)c1OP(C)(=O)Nc1ccc(SC(F)(F)F)cc1 (stereo not given) | inactive: 0.124%
CP(=O)(Oc1ccccc1)OC(c1ccccc1)C(F)(F)F (stereo not given) | inactive: 0.0275%
O=[N+]([O-])c1cc([N+](=O)[O-])c(O)c([N+](=O)[O-])c1.c1ccc(Oc2ccncc2)cc1 | inactive: 0.141%
CCOC(=O)c1ccc(NP(C)(=O)Oc2ccc(OC)cc2)cc1 (stereo not given) | inactive: -0.091%
COc1ccccc1OP(C)(=O)Nc1ccccc1 (stereo not given) | inactive: 0.766%
CP(=O)(Nc1ccccc1Br)Oc1ccccc1 (stereo not given) | inactive: 0.0115%
